Results on two compounds are retold here after BindingDB's records for doi:10.1016/0014-2999(84)90478-3 (Mayo Clinic, 1984).

The chains behind the UniProt entries cited, without tags or fusion partners.
UniProt P35367, whole entry: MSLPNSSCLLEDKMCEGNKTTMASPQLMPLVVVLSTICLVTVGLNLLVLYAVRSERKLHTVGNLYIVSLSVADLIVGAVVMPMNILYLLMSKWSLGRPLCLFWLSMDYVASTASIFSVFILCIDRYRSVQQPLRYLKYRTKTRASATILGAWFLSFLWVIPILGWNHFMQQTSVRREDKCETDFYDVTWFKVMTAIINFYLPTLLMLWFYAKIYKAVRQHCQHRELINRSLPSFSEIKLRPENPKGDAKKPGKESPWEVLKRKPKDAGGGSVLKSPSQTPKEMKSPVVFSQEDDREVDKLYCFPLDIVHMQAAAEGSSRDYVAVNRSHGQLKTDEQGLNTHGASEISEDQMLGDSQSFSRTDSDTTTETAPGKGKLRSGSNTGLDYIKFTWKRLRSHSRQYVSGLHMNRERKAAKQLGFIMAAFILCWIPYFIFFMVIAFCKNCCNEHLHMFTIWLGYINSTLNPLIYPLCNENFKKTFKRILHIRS

The structures appear in SMILES notation.

The target of this experiment is Histamine H1 receptor (Homo sapiens, UniProt P35367).

By Ki is commonly meant the equilibrium dissociation constant of an inhibitor or competing ligand from its target. In turn, `CN1CCN(C2=c3ccccc3=Nc3ccc(Cl)cc3N2)CC1` [6-chloro-10-(4-methylpiperazin-1-yl)-2,9-diazatricyclo[9.4.0.0^{3,8}]pentadeca-1,3(8),4,6,10,12,14-heptaene] yielded a Ki of 2.8 nM.
The same measure for `CN1CCN(CC/C=C2/c3ccccc3Sc3ccc(S(=O)(=O)N(C)C)cc32)CC1` [MLS000028463]: 6 nM.
